Assay in all cases: MBP-SSX1 78aa pull-down of HEK293T mononucleosomes, targeted histone MS, sample MM04_D01
Test [1] has as its target H2A(12to17)K13ac1 histone form in mammalian mononucleosomes from HEK-293T cells (mammalian (HEK-293T cells)) (UniProt P0C0S8).
Test [2] addresses H2A(12to17)K15ac1 histone form in mammalian mononucleosomes from HEK-293T cells (mammalian (HEK-293T cells)) (UniProt P0C0S8).
Test [3] deals with H2A(4to11)K5ac1 histone form in mammalian mononucleosomes from HEK-293T cells (mammalian (HEK-293T cells)) (UniProt P0C0S8).
Test [4] addresses H2A(4to11)K5ac1K9ac1 histone form in mammalian mononucleosomes from HEK-293T cells (mammalian (HEK-293T cells)) (UniProt P0C0S8).
Test [5] has as its target H2AZ(1to19)K4ac1 histone form in mammalian mononucleosomes from HEK-293T cells (mammalian (HEK-293T cells)) (UniProt P0C0S5).
The target in test [6] is H2AZ(1to19)ac0 histone form in mammalian mononucleosomes from HEK-293T cells (mammalian (HEK-293T cells)) (UniProt P0C0S5).
Test [7] has as its target H2B(1to29)K5ac1 histone form in mammalian mononucleosomes from HEK-293T cells (mammalian (HEK-293T cells)) (UniProt P62807).
For test [8], the target named is H2B(1to29)ac0 histone form in mammalian mononucleosomes from HEK-293T cells (mammalian (HEK-293T cells)) (UniProt P62807).
Test [9] concerns the target H3K4ac1 histone form in mammalian mononucleosomes from HEK-293T cells (mammalian (HEK-293T cells)) (UniProt P68431).
The target in test [10] is H3K4me3 histone form in mammalian mononucleosomes from HEK-293T cells (mammalian (HEK-293T cells)) (UniProt P68431).
For test [11], the target named is H3K9me3S10ph1K14ac0 histone form in mammalian mononucleosomes from HEK-293T cells (mammalian (HEK-293T cells)) (UniProt P68431).
The target in test [12] is H4(20to23)K20me3 histone form in mammalian mononucleosomes from HEK-293T cells (mammalian (HEK-293T cells)) (UniProt P62805).
Test [13] concerns the target H4(4to17)K12ac1K16ac1me0 histone form in mammalian mononucleosomes from HEK-293T cells (mammalian (HEK-293T cells)) (UniProt P62805).
The target of test [14] is H4(4to17)K12ac1me0 histone form in mammalian mononucleosomes from HEK-293T cells (mammalian (HEK-293T cells)) (UniProt P62805).
Test [15] addresses H4(4to17)K16ac1me0 histone form in mammalian mononucleosomes from HEK-293T cells (mammalian (HEK-293T cells)) (UniProt P62805).
Test [16] addresses H4(4to17)K5ac1K8ac1K12ac1K16ac1me0 histone form in mammalian mononucleosomes from HEK-293T cells (mammalian (HEK-293T cells)) (UniProt P62805).
For test [17], the target named is H4(4to17)K5ac1K8ac1K12ac1me0 histone form in mammalian mononucleosomes from HEK-293T cells (mammalian (HEK-293T cells)) (UniProt P62805).
The target of test [18] is H4(4to17)K5ac1me0 histone form in mammalian mononucleosomes from HEK-293T cells (mammalian (HEK-293T cells)) (UniProt P62805).
In test [19] the target is H4(4to17)K8ac1K12ac1K16ac1me0 histone form in mammalian mononucleosomes from HEK-293T cells (mammalian (HEK-293T cells)) (UniProt P62805).

Take “MBP-SSX1 (78aa) (from UniProt P0AEX9 27-392)”: the log2 normalized (Light/Heavy) intensity ratio in test [1] is 0.032 log2; in test [2], 0.042 log2; in test [3], 0.569 log2; in [4] it was -0.031 log2; in [5], -0.217 log2; in test [6], -0.784 log2. Further, the log2 normalized (Light/Heavy) intensity ratio was 0.273 log2 in [7]; 0.152 log2 in [8]; 0.263 log2 in test [9]; 0.766 log2 in test [10]; -0.566 log2 in test [11]; -0.109 log2 in [12]. The log2 normalized (Light/Heavy) intensity ratio is 0.204 log2 in test [13]; -0.207 log2 in [14]; -0.391 log2 in test [15]; 0.276 log2 in test [16]; -0.223 log2 in [17]; -0.053 log2 in test [18]. Moreover, the log2 normalized (Light/Heavy) intensity ratio in test [19] worked out at 0.677 log2.

The values above are taken from patent publication US20250283871A1, “COMPOSITIONS AND METHODS FOR MODULATING THE INTERACTION BETWEEN SS18-SSX FUSION ONCOPROTEIN AND NUCLEOSOMES” (Dana-Farber Cancer Institute, Inc., priority 2020, published 2025).
